Rows were chosen to be rich in hits. Some 1.3% of all compounds tested hit in one or more screens of this group.
E-sel inducer: E-selectin induction on HUVECs. P16581. HUVEC E-selectin immunofluorescence imaging; normalized: neutral wells 0, TNF-alpha wells 100. activation, % at 7.58 µM. 260,000 compounds, 0.37% hits. AID 686992;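 active = mean E-selectin-positive cell signal at least 10% of the positive control, reached in at least 60% of replicates, without over 20% cell loss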
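System: HUVEC / Compound: single concentration / Signal: immunofluorescence imaging / Read-out: percent E-selectin-positive cells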
MLL AF4-AF9 inh: blocks AF4 peptide binding to human AF9; inhibition, % at 10 µM; AlphaScreen, biotin-AF4 peptide binding to FLAG-AF9; P42568; 350,000 compounds, 0.47% hits; AID 651704;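 active = every replicate reaching a set inhibition limit, whatever the replicate mean, cut at about 25% in these data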;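 also: 0% = plate neutral control median and 100% = total signal loss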
ERAP1 inh: inhibitors of human ERAP1 aminopeptidase; AID 652197; Q9NZ08; recombinant ERAP1, Leu-AMC fluorescence, 60 min; inhibition, % at 10.7 µM; 340,000 compounds, 0.15% hits;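 active = mean replicate inhibition of at least 30%, or all replicates individually reaching that 30% level; inactive = mean below 30% and not every replicate reaching it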;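 also: 0% = neutral control wells and 100% = L-leucinethiol positive control wells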
S100A4 inh HTS: inhibitors of human S100A4 binding to myosin IIA peptide; S100A4/TAMRA-MyoIIA peptide fluorescence polarization; inhibition, % at 10.7 µM; 360,000 compounds, 0.14% hits; AID 652163;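 active = mean inhibition of at least 70% across replicates, with every replicate also reaching that level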
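Test system: S100A4 monomer protein. Medium: HEPES buffer with Ca2+, pH 7.2. Reagent: fluorescent myosin IIA peptide, 5 nM. Compound dosing: single-point compound testing. Timing: 5 min between mix addition and reading. Benchmarks: DMSO neutral and TFP positive wells.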
ARNT-TACC3 inh: disrupts binding between human ARNT and TACC3; Q9Y6A5; AlphaScreen His-ARNT PAS-B/GST-TACC3 binding, luminescence; TACC3 fragment carries E629A point mutation; inhibition, % at 9.99 µM; 390,000 compounds, 0.66% hits;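 active = mean inhibition of replicates at least 50% and at least half of replicates each reaching 50%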;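 also: 0% = complete ARNT plus TACC3 wells and 100% = ARNT alone without TACC3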
Yeast UUG start-1: alters start codon recognition fidelity in yeast | S. cerevisiae UUG-firefly luciferase reporter, luminescence/redox ratio | activity score, % at 18.7 µM | 350,000 compounds, 0.13% hits | AID 602363;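 active = replicate mean at a twofold rise or more, about +100% in these data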;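 note: firefly luciferase made from a UUG start codon reports start codon fidelity; reporter light over untreated wells divided by growth signal over untreated wells; some hits fall short of that in this replicate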
Yeast UUG start-2: alters UUG start codon use in yeast. activation, % at 38 µM. 540 tested, under 10 active. shares compounds with Yeast UUG start-1. S. cerevisiae UUG-start firefly luciferase, luminescence, 4 h; 100% means double the DMSO signal;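 active = signal increase whose fitted curve reaches an absolute level of 40 at a concentration under 10 µM; inactive = activity opposite to the expected increase, or the rest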
* marks the source's active call; other numbers are inactive results; i = inactive; / = not tested or not shown.

SMILES	E-sel inducer	MLL AF4-AF9 inh	ERAP1 inh	S100A4 inh HTS	ARNT-TACC3 inh	Yeast UUG start-1	Yeast UUG start-2
CCOc1ccccc1NC(=O)NC(=O)N(C)S(C)(=O)=O	/	-11	-3	-2	3	436*	-6
CCC(=O)N1C[C@@H](C)[C@H](OC)CN(C)C(=O)c2ccc(NC(=O)c3cnccn3)cc2OC[C@H]1C	0	-1	1	-9	-7	31	/
CCNC(=O)[C@@H]1[C@@H](CO)[C@@H]2Cn3c(ccc(C4=CCCC4)c3=O)[C@H]1N2Cc1cccnc1	0	1	-1	19	14	/	/
CCCc1nc2ccc(C)cn2c1Cc1ccccc1C(F)(F)F	1	5	-3	-4	/	105*	0
O=C(C[C@@H]1C[C@@H]2c3cc(NS(=O)(=O)c4ccc(F)cc4)ccc3O[C@@H]2[C@H](CO)O1)NCc1ccncc1	0	1	0	3	4	-29	/
COC(=O)C[C@@H]1C[C@@H]2c3cc(NC(=O)Nc4ccccc4F)ccc3O[C@@H]2[C@@H](CO)O1	1	12	-2	4	-5	72*	i
COCCNC(=O)C[C@H]1C[C@H]2c3cc(NC(=O)c4ccc5c(c4)OCO5)ccc3O[C@H]2[C@@H](CO)O1	1	5	-2	-1	3	137*	i
Cc1cc(=O)[nH]c(=O)n1Cc1ccccc1	2	-2	1	5	0	196*	1
C[C@@H]1CN([C@@H](C)CO)C(=O)c2cc(NC(=O)Cc3ccccc3)ccc2O[C@@H](C)CCCCO[C@H]1CN(C)Cc1ccc(C(F)(F)F)cc1	0	/	/	/	-2	10	/
COc1ccccc1CC(=O)OC(C)C(=O)Nc1ccc(S(=O)(=O)N2CCCCC2)cc1 (stereo not drawn)	/	1	-1	-10	1	-2	-3
COC(=O)Nc1ccc(S(=O)(=O)N2CCC(Cc3ccccc3)CC2)cc1	/	/	/	/	-5	462*	-2
CS(=O)(=O)N1[C@@H]2c3ccc(-c4ccccc4F)c(=O)n3C[C@@H]2[C@@H](CO)[C@@H]1C(=O)NCC1CC1	0	-5	-1	18	/	/	/
O=C(C[C@@H]1C[C@@H]2c3cc(NC(=O)Nc4ccccc4F)ccc3O[C@@H]2[C@H](CO)O1)NCC(F)(F)F	1	-2	-2	-6	-6	-3	/
Cn1nc(CC(=O)NC2CCCCCCCCCCC2)c2ccccc2c1=O	/	/	/	/	4	-16	/
COc1ccc(CCNC(=O)Cc2nn(C)c(=O)c3ccccc23)cc1OC	/	/	/	/	-3	6	-8
Cn1nc(CC(=O)Nc2ccc(OC(=O)c3ccccc3)cc2)c2ccccc2c1=O	/	/	/	/	/	/	i
COc1ccc(NC(=O)Cc2nn(C)c(=O)c3ccccc23)cc1	/	/	/	/	/	/	i
COc1ccc(NC(=O)COc2ccc(-c3nn(C)c(=O)c4ccccc34)cc2)cc1	0	-2	8	-4	0	0	/
COc1ccc(CCNC(=O)CNC(=O)c2nn(-c3ccc(OC)c(OC)c3)c(=O)c3ccccc23)cc1OC	0	0	4	0	-4	-5	/
Cn1nc(CC(=O)Nc2ccc3c(c2)CCC3)c2ccccc2c1=O	/	/	/	/	-6	-10	-3

Full records, quoted from the list. Values in the order: E-sel inducer | MLL AF4-AF9 inh | ERAP1 inh | S100A4 inh HTS | ARNT-TACC3 inh | Yeast UUG start-1 | Yeast UUG start-2
Profile of C[C@@H]1CN([C@@H](C)CO)C(=O)c2cc(NC(=O)Cc3ccccc3)ccc2O[C@@H](C)CCCCO[C@H]1CN(C)Cc1ccc(C(F)(F)F)cc1 → 0 | / | / | / | -2 | 10 | /
Profile of CCOc1ccccc1NC(=O)NC(=O)N(C)S(C)(=O)=O → / | -11 | -3 | -2 | 3 | 436* | -6
Profile of Cn1nc(CC(=O)Nc2ccc(OC(=O)c3ccccc3)cc2)c2ccccc2c1=O → / | / | / | / | / | / | i

The listing continues:
SMILES	E-sel inducer	MLL AF4-AF9 inh	ERAP1 inh	S100A4 inh HTS	ARNT-TACC3 inh	Yeast UUG start-1	Yeast UUG start-2
C[C@@H]1CN([C@@H](C)CO)C(=O)c2cccc(NC(=O)c3ccncc3)c2O[C@H]1CN(C)S(=O)(=O)c1cccs1	-5	-1	2	-25	-5	-23	/
CN(C)C(=O)C[C@H]1CC[C@@H]2[C@H](COc3ccc(NC(=O)c4ccc(F)c(F)c4)cc3C(=O)N2C)O1	0	0	-1	-4	1	13	/
Cc1cc(C)c(-n2nnnc2SCC(=O)c2cccs2)c(C)c1	/	/	-4	0	5	active	-3
CCC(=O)N1CC(=O)N2[C@@H](CO)[C@@H](c3ccc(C#Cc4cccc(OC)c4)cc3)[C@@H]2C1	0	-1	1	10	/	/	/
C/C=C/c1ccc2c(c1)O[C@@H](CN(C)Cc1cncnc1)[C@@H](C)CN([C@@H](C)CO)S2(=O)=O	0	-1	-1	2	-3	24	/
